The record followed here is ChEMBL document CHEMBL3351497, “Structure Activity Relationships of αv Integrin Antagonists for Pulmonary Fibrosis by Variation in Aryl Substituents” (ACS Med Chem Lett, 2014).

Sequences of proteins named here, by UniProt entry; tags and fusion partners are left off. Residues count along the entry.
UniProt P05106, 27-788 limits assumed: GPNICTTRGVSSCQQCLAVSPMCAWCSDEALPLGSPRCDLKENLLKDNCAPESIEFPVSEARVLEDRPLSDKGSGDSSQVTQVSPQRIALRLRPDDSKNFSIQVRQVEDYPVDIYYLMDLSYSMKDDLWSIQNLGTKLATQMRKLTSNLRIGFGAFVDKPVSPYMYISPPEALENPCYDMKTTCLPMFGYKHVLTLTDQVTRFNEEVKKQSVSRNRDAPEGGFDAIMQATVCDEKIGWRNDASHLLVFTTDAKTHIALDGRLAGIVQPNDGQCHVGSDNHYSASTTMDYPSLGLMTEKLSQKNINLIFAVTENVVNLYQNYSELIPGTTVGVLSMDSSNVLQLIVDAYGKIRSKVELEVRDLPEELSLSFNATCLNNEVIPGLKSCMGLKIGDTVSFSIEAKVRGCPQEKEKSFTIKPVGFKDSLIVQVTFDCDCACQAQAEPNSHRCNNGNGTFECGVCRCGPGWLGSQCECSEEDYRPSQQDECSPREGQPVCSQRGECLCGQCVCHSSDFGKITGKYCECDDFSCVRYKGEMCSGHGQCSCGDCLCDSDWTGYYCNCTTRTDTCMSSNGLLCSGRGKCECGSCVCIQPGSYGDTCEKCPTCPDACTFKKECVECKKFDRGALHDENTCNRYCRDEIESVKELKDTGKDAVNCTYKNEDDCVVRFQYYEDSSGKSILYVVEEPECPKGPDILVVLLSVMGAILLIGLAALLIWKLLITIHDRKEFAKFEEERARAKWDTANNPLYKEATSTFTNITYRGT
UniProt P06756, 891-1048 limits assumed: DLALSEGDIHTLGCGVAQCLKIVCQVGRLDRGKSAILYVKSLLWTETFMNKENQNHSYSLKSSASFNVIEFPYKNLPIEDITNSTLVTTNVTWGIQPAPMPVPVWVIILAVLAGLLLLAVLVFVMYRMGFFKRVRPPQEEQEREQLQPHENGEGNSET
UniProt P06756, 31-889 limits assumed: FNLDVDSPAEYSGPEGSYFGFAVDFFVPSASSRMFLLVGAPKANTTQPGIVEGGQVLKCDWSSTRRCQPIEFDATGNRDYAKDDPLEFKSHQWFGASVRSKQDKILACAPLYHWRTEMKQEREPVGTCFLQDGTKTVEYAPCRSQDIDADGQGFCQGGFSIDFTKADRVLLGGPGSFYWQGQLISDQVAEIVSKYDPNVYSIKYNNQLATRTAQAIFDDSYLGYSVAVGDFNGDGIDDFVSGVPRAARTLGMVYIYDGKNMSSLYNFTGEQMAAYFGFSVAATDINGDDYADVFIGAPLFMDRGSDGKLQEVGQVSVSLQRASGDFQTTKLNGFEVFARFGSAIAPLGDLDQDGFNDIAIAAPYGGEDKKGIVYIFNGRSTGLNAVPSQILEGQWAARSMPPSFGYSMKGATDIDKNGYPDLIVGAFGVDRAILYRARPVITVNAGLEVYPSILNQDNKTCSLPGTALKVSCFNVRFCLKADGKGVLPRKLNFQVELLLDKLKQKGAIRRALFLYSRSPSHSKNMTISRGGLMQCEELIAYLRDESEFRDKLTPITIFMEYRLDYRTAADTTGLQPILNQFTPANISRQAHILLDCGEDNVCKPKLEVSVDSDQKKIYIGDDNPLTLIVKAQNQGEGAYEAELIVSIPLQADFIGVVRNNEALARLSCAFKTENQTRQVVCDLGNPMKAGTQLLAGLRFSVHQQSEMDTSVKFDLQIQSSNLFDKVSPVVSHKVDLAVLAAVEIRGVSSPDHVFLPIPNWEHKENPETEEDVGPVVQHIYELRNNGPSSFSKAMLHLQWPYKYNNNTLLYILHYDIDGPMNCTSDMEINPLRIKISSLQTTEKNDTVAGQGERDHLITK

The target of experiment [1] is T1, Integrin alpha-V/beta-3 (Homo sapiens, UniProt P05106+P06756). The experiment in a line: Inhibition of integrin alphavbeta3 (unknown origin) by Monsanto binding assay. In kind it is protein-complex assay.
The target of experiment [2] is T1, Integrin alpha-V/beta-3. The experiment in a line: Inhibition of integrin alphavbeta3 (unknown origin)-mediated K562 cell adhesion to LAPb1 coated surface by fluorescence analysis. In kind it is cell-based.

Each structure is given as a SMILES string.

`N=C(N)Nc1cccc(C(=O)NCC(=O)NC(CC(=O)O)c2cc(Cl)cc(Cl)c2)c1` (configuration not stated): the IC50 (commonly the midpoint of a concentration-inhibition curve) at Integrin alpha-V/beta-3 [1] was 1.1 nM; at Integrin alpha-V/beta-3 [2] it was 25.1 nM.
